Columns and labels:
Homo sapiens = species on record: Homo sapiens; assay: Selectivity ratio of IC50 for human PLD1 to IC50 for human GST-tagged PLD2A
Phospholipase D1 = molecular target: T1, Phospholipase D1 (Homo sapiens, UniProt Q13393)
T1 sequence (Q13393 whole entry): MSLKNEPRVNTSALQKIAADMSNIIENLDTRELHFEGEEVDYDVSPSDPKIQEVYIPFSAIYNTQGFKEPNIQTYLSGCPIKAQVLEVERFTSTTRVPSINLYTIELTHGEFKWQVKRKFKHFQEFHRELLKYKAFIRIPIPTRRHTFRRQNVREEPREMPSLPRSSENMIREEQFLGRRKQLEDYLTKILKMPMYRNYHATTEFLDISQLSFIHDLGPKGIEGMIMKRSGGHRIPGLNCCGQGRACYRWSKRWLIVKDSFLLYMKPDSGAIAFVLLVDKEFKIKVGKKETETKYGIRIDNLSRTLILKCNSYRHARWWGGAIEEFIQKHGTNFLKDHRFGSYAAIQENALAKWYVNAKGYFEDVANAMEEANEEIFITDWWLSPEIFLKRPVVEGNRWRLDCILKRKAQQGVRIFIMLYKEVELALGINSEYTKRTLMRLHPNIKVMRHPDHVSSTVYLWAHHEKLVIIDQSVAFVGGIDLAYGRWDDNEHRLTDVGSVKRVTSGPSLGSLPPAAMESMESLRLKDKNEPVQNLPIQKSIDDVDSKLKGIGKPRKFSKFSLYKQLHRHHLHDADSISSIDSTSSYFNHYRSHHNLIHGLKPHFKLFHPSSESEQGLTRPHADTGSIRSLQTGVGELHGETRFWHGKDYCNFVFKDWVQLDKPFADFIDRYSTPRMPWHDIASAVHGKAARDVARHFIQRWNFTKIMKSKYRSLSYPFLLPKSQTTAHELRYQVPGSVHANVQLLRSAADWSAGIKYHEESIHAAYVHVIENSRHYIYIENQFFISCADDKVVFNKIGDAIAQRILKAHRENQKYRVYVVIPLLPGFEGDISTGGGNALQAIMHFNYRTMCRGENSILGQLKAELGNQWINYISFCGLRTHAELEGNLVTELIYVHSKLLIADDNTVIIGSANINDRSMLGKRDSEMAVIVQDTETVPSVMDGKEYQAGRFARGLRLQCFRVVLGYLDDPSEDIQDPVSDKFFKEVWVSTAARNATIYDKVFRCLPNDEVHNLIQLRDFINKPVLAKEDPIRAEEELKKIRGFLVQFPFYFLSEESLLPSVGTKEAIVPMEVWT

in vivo [1] = settings: Sprague-Dawley, rat, iv, 1 mg/kg
in vivo [2] = settings: Sprague-Dawley, rat, iv, 1 mg/kg; remark: listed apart in the source

| Structure (SMILES) | Selectivity ratio (Homo sapiens) | IC50 (Phospholipase D1) [µM] | clearance (in vivo [1]) [mL/min/kg] | Vd (in vivo [2]) [L/kg] |
| --- | --- | --- | --- | --- |
| O=C(NCCN1CCC2(CC1)C(=O)NCN2c1ccccc1)c1ccc2ccccc2c1 | 9 | – | – | – |
| O=C(NCCN1CCC2(CC1)C(=O)NCN2c1cccc(F)c1)c1ccc(F)cc1 | 1.8 | 12 | – | – |
| C[C@@H](CN1CCC2(CC1)C(=O)NCN2c1ccccc1)NC(=O)c1ccc2ccccc2c1 | 40 | – | – | – |
| O=C(NCCN1CCC2(CC1)C(=O)NCN2c1cccc(F)c1)c1ccc2ccccc2c1 | – | – | 61.5 | 8.1 |
